Reference: patent publication US20040254241A1, “Aryl sulfamate derivatives” (priority 2004, published 2004)

Sequences of proteins named here, by UniProt entry; tags and fusion partners are left off. Residues count along the entry.
UniProt P08842, 22-583 limits assumed: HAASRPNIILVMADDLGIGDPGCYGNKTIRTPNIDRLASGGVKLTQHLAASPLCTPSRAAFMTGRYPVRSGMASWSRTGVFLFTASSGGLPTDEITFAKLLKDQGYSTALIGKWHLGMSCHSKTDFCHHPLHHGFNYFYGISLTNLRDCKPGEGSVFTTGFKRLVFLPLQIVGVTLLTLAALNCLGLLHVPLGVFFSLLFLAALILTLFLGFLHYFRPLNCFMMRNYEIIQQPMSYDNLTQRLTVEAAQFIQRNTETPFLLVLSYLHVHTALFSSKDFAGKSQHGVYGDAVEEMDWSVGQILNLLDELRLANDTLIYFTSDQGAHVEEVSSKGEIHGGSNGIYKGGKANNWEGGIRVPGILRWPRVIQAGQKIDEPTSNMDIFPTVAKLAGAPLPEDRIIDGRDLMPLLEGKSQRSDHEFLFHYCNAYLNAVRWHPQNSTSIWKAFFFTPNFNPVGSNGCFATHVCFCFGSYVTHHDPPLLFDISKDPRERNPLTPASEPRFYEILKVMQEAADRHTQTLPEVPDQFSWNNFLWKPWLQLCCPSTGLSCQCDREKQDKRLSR

Biological target: recombinant human estrone sulfatase (Homo sapiens, UniProt P08842)
Test: Test for inhibition of estrone sulfatase (steroid sulfatase)
Conditions: read-out: Inhibitory activity against steroid sulfatase IC50; 4-methylumbelliferyl sulfate 0.3 mmol/L, phosphate buffer pH 7.5, 37° C., 1 hour; enzyme expressed in CHO cells, partially purified
Description: Test Example 1: Test for Inhibition of Estrone Sulfatase (Steroid Sulfatase)
4-Methylumbelliferyl sulfate (final concentration 0.3 mmol/L), recombinant human estrone sulfatase (7.8 ng/well), and each solution of the test compound having each test concentrations (test compound was dissolved in 0.001 mL of DMSO) were added to a phosphate buffer (pH 7.5) (final volume 0.1 mL) containing 0.28 mol/L sucrose and 0.04 mol/L nicotinamide. An enzyme reaction was conducted at 37° C. for 1 hour. The human estrone sulfatase gene was introduced into Chinese Hamster Ovary (CHO) cells, and the recombinant human estrone sulfatase was expressed, then it was used after partial purification. After completing the enzyme reaction, 2 mol/L glycine-sodium hydroxide solution (pH 10.3) (0.13 mL) was added and stirred. Using a fluorescent plate reader (Cyto Fluor II), the fluorescent strength of the generated 4-methylumbelliferone was measured. […] The inhibitory activity against estrone sulfatase for each concentration of the test compounds was calculated using the following equation. […]
The inhibitory activity against estrone sulfatase of the aryl sulfamate derivative can be expressed as the concentration (IC50) of aryl sulfamate derivative at which the estrone sulfatase activity in the presence of the aryl sulfamate derivative is half of that when no test compound is added.

Compound `CCCCCCCCNC(=O)C(C#N)=C(C)c1ccc(OS(N)(=O)=O)cc1` has an IC50 of less than 12 nM.
